This test has as its target T1, recombinant human KDM4A (Homo sapiens, UniProt O75164).
T1 construct: recombinantly expressed as reported either in Escherichia coli (KDM2A1–557 25, KDM4A1–359 26); His6 (N); made in house; host or cells: Escherichia coli
T1 sequence (O75164 1-359): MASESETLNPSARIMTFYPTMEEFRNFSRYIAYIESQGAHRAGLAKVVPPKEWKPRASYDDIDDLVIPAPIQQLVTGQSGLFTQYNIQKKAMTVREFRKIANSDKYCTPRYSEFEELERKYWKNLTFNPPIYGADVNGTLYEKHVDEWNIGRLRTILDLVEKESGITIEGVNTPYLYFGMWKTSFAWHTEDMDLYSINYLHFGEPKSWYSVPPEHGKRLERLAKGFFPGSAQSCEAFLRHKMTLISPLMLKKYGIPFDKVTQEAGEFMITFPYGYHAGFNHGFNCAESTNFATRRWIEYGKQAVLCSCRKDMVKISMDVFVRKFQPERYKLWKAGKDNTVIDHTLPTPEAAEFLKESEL
Briefly: Formaldehyde dehydrogenase (FDH)-coupled demethylation assay, Michaelis–Menten kinetics. The test is classed as biochemical. The following applies: peptide as substrate. How it is done:
Kinetic parameters for KDM4 enzymes were determined by use of an FDH (formaldehyde dehydrogenase)/NAD^+‐coupled) assay for quantification of the formaldehyde reaction byproduct, as previously described 27. […] Specific activities were measured using a 100‐μM peptide. For Michaelis–Menten experiments, peptide concentrations were varied. Reactions were monitored using a PHERAstar FS plate reader (BMG Labtech, Ortenberg, Germany) with 355 nm excitation and 460 nm emission. Kinetic parameters were calculated from the reaction rate during the initial linear phase of formaldehyde production, which were used to calculate specific activities or fitted to Michaelis–Menten equations using GRAPHPAD PRISM (GraphPad Software, La Jolla, CA, USA).
Michaelis–Menten kinetics were then conducted with KDM4A. Samples containing KDM4A, 2OG, ascorbate, H1.4K26me3 peptide, NAD^+ and FDH were analysed over time and kinetic parameters were determined by recording the initial reaction rates of NADH production (corresponding to enzymatic production of formaldehyde) at varying peptide concentration. Similar experiments were carried out with H3K9me3 and H3K36me3 substrate peptides and the obtained values compared (Table 2). […] Demethylation of the H3K36me3 peptide was the least efficient, with higher K M (66.8 ± 5.4 μM) and lower k cat (0.12 ± 0.004 s^−1) values than with the other two peptides.

Where [1] appears, read: concentration varied, FDH/NAD+-coupled fluorescence assay, 50 mM HEPES pH 7.5, 0.01% Tween-20, 2OG 200 μM, KDM4A, mean and standard deviation of three independent replicates, SD.

We go through one substance from article PMC6220849, “Mechanistic and structural studies of KDM‐catalysed demethylation of histone 1 isotype 4 at lysine 26” (Febs Letters, 2018).

Turning to “ARTKQTAR-Kme3-STGGKA [H3(1–15)K9me3, histone H3 residues 1–15 peptide with Kme3 at K9, well-characterised KDM4 substrate]”, under setting [1], the “K M” value was 25.5 ± 4.9 µM and the k cat came out at 0.31 ± 0.045 s⁻¹. Also, the k cat/K M (FDH-coupled assay, ratio of k cat (s^−1) and K M (μM)) is 12400 M⁻¹ s⁻¹.
